# Patent US8486918B2, “Phenyl oxadiazole derivatives as sphingosine 1-phosphate (S1P) receptor” (Allergan, Inc., priority 2010, dated 2013)
# Chains of the proteins cited; added tags and fusions are not shown.
# UniProt P21453, whole entry: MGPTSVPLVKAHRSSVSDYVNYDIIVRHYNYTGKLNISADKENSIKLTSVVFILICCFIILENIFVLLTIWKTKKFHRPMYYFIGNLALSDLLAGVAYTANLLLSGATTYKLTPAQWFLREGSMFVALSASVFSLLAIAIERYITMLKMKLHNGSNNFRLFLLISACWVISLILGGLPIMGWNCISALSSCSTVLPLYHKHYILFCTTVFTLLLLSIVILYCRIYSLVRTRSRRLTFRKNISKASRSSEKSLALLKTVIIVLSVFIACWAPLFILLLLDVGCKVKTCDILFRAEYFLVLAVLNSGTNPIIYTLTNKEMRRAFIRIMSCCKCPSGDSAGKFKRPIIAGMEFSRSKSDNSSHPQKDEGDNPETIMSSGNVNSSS
# Target: human S1P1 receptor (Homo sapiens, UniProt P21453)
# Assay: GTP γ35S binding assay for S1P1 activity
# Settings: read-out: S1P1 EC50, membranes of cells stably expressing the S1P1 receptor, test concentrations 0.08 to 5,000 nM
# Procedure: Compounds were synthesized and tested for S1P1 activity using the GTP γ^35S binding assay. These compounds may be assessed for their ability to activate or block activation of the human S1P1 receptor in cells stably expressing the S1P1 receptor.
# GTP γ^35S binding was measured in the medium containing (mM) HEPES 25, pH 7.4, MgCl2 10, NaCl 100, dithitothreitol 0.5, digitonin 0.003%, 0.2 nM GTP γ^35S, and 5 μg membrane protein in a volume of 150 μl. Test compounds were included in the concentration range from 0.08 to 5,000 nM unless indicated otherwise. Membranes were incubated with 100 μM 5′-adenylylimmidodiphosphate for 30 min, and subsequently with 10 μM GDP for 10 min on ice. Drug solutions and membrane were mixed, and then reactions were initiated by adding GTP γ^35S and continued for 30 min at 25° C. Reaction mixtures were filtered over Whatman GF/B filters under vacuum, and washed three times with 3 mL of ice-cold buffer (HEPES 25, pH7.4, MgCl2 10 and NaCl 100). Filters were dried and mixed with scintillant, and counted for ^35S activity using a β-counter. Agonist-induced GTP γ^35S binding was obtained by subtracting that in the absence of agonist. Binding data were analyzed using a non-linear regression method. In case of antagonist assay, the reaction mixture contained 10 nM S1P in the presence of test antagonist at concentrations ranging from 0.08 to 5000 nM.
row,pEC50,SMILES
1,6.87,Cc1ccc(OC(c2cccc(Cl)c2)c2nc(-c3ccc(CNCCC(=O)O)cc3)no2)cc1C (stereo not drawn)
2,5.91,Cc1ccc(SC(c2ccc(Cl)cc2)c2nc(-c3ccc(CNCCC(=O)O)cc3)no2)cc1C (stereo not drawn)
3,7.12,Cc1ccc(SC(c2cccc(Cl)c2)c2nc(-c3ccc(CNCCC(=O)O)cc3)no2)cc1C (stereo not drawn)

# pEC50: −log10 of the molar value.
